Experimental data from patent US7276484B2, “Dipeptide inhibitors of β-secretase” (Elan Pharmaceuticals, Inc., priority 1999, dated 2007).

Chains of the proteins cited; added tags and fusions are not shown. Residues count along the entry.
UniProt P56817, 46-501 limits assumed: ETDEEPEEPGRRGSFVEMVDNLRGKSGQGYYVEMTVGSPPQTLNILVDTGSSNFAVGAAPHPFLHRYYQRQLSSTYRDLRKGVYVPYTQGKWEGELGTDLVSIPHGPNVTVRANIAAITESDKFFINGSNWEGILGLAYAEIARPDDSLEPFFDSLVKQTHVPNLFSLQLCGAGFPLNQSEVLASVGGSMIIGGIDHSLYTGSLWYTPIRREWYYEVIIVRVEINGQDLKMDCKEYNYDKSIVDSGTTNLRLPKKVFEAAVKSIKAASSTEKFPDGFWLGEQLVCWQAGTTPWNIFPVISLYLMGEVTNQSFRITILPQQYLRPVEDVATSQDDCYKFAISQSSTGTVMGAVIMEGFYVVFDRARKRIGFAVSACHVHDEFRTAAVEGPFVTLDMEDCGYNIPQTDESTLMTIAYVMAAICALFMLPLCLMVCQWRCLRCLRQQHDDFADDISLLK

target: Human brain β-Secretase (Homo sapiens, UniProt P56817); assay: MBP-C125 enzyme inhibition assay (ELISA detection of β-secretase cleavage of MBP-C125 substrate); conditions: read-out: IC50 Grouping, pH 4.5, 37° C., 90 minutes

Row | SMILES | IC50
1 | CCN(CC)C(=O)c1cccc(C(=O)N[C@@H](Cc2cc(F)cc(F)c2)[C@@H](O)CC(=O)N[C@H](C(=O)NC2CC(C(=O)O)CC(C(=O)O)C2)C(C)C)c1 (stereo partly shown) | < 10 µM
2 | CC(C)[C@@H](NC(=O)C[C@@H](O)[C@@H](Cc1cc(F)cc(F)c1)NC(=O)C(O)c1ccc2c(c1)OCCO2)C(=O)N[C@H]1C[C@@H](C(=O)O)C[C@@H](C(=O)O)C1 (stereo partly shown) | < 10 µM
3 | CC(C)C[C@H](NC(=O)C(O)c1cccc2ccccc12)[C@@H](O)CC(=O)N[C@H](C(=O)NCc1ccc(C(=O)O)cc1)C(C)C (single isomer, unassigned) | 10 to 99 µM
4 | CC(C)[C@@H](NC(=O)C[C@@H](O)[C@@H](Cc1cc(F)cc(F)c1)NC(=O)C(O)c1cccc2ccccc12)C(=O)N[C@@H]1C[C@H](CO)C[C@H](CO)C1 (stereo partly shown) | < 10 µM
5 | CC(C)[C@H](NC(=O)C[C@H](O)[C@H](Cc1cc(F)cc(F)c1)NC(=O)c1cccc(C(=O)N2CCN(C)CC2)c1)C(=O)NC1CC(C(=O)O)CC(C(=O)O)C1 (stereo partly shown) | 10 to 99 µM
6 | CCNC(=O)[C@H](NC(=O)C[C@@H](O)[C@@H](Cc1cc(F)cc(F)c1)NC(=O)c1cccc(C(=O)N(C)CC)c1)C(C)C | < 10 µM
7 | CCCN(CCC)C(=O)c1ccc(C(=O)N[C@H](Cc2cc(F)cc(F)c2)[C@H](O)CC(=O)N[C@@H](C(=O)N[C@H]2C[C@@H](C(=O)O)C[C@@H](C(=O)O)C2)C(C)C)o1 | < 10 µM
8 | CC(C)C[C@@H](NC(=O)CC(O)c1ccccc1)[C@H](O)CC(=O)N[C@@H](C(=O)NCc1ccc(C(=O)O)cc1)C(C)C (stereo partly shown) | > 200 µM
9 | CCCN(CCC)C(=O)c1cc(OC)cc(C(=O)N[C@H](Cc2cc(F)cc(F)c2)[C@H](O)CC(=O)N[C@@H](C(=O)NC2CC(C(=O)O)CC(C(=O)O)C2)C(C)C)c1 (stereo partly shown) | < 10 µM
10 | CC(C)C[C@H](NC(=O)C(O)c1cccc(Oc2ccccc2)c1)[C@@H](O)CC(=O)N[C@H](C(=O)NCc1ccc(C(=O)O)cc1)C(C)C (stereo partly shown) | 10 to 99 µM
11 | CC(C)C[C@H](NC(=O)[C@@H](O)Cc1ccccc1)[C@@H](O)CC(=O)N[C@H](C(=O)NCc1ccc(C(=O)O)cc1)C(C)C | 100 to 200 µM
12 | CC(C)C[C@H](NC(=O)C(O)c1cccc2ccccc12)[C@@H](O)CC(=O)N[C@H](C(=O)O)C(C)C (stereo partly shown) | > 200 µM
13 | CC(C)C[C@@H](NC(=O)C(OCc1ccccc1)c1cccc2ccccc12)[C@H](O)CC(=O)N[C@@H](C(=O)NCc1ccc(C(=O)O)cc1)C(C)C (stereo partly shown) | 100 to 200 µM
14 | CCNC(=O)[C@@H](NC(=O)C[C@H](O)[C@H](Cc1cc(F)cc(F)c1)NC(=O)C(O)c1ccccc1-c1ccccc1)C(C)C (stereo partly shown) | < 10 µM
15 | CC(=O)Nc1cccc(C(=O)N[C@@H](Cc2cc(F)cc(F)c2)[C@@H](O)CC(=O)N[C@H](C(=O)NC2CC(C(=O)O)CC(C(=O)O)C2)C(C)C)c1 (stereo partly shown) | 10 to 99 µM
16 | CCN(CC)C(=O)c1cccc(C(=O)N[C@@H](Cc2cc(F)cc(F)c2)[C@@H](O)CC(=O)N[C@H](C(=O)O)C(C)C)c1 | < 10 µM
17 | Cc1ccc(C[C@H](NC(=O)C(O)c2cccc3ccccc23)[C@@H](O)CC(=O)N[C@H](C(=O)NCc2ccc(C(=O)O)cc2)C(C)C)cc1 (stereo partly shown) | 10 to 99 µM
18 | CSCCC(O)C(=O)N[C@H](CC(C)C)[C@H](O)CC(=O)N[C@@H](C(=O)NCc1ccc(C(=O)O)cc1)C(C)C (stereo partly shown) | 100 to 200 µM
19 | CC(C)C[C@H](NC(=O)[C@H](O)c1ccccc1)[C@@H](O)CC(=O)N[C@H](C(=O)NCc1ccc(C(=O)O)cc1)C(C)C | 100 to 200 µM
20 | CC(C)[C@@H](NC(=O)C[C@@H](O)[C@@H](Cc1cc(F)cc(F)c1)NC(=O)c1ccccc1)C(=O)NC1CC(C(=O)O)CC(C(=O)O)C1 (stereo partly shown) | 10 to 99 µM
21 | CCN(C)C(=O)c1cccc(C(=O)N[C@H](Cc2cc(F)cc(F)c2)[C@H](O)CC(=O)N[C@@H](C(=O)O)C(C)C)c1 | 10 to 99 µM
22 | CC(C)C[C@H](NC(=O)[C@H](O)Cc1ccccc1)[C@@H](O)CC(=O)N[C@H](C(=O)NCc1ccc(C(=O)O)cc1)C(C)C | > 200 µM

Results, then the molecule that gave them:

Row | IC50 | SMILES
23 | < 10 µM | CC(C)[C@H](NC(=O)C[C@H](O)[C@H](Cc1cc(F)cc(F)c1)NC(=O)CCCC(=O)N(C)C)C(=O)NC1CC(C(=O)O)CC(C(=O)O)C1 (stereo partly shown)
24 | < 10 µM | CCCN(CCC)C(=O)c1cc(C)cc(C(=O)N[C@H](Cc2cc(F)cc(F)c2)[C@H](O)CC(=O)N[C@@H](C(=O)NC2CC(OC)C(OC)C(OC)C2)C(C)C)c1 (stereo partly shown)
25 | > 200 µM | CC(C)C[C@H](NC(=O)C(O)c1cccc2ccccc12)[C@@H](O)CC(=O)N[C@H](C(=O)NCc1ccc(C(=O)O)c2ccccc12)C(C)C (stereo partly shown)
26 | 10 to 99 µM | CC(C)C[C@@H](NC(=O)C(O)c1cccc2ccccc12)[C@H](O)CC(=O)N[C@@H](C(=O)NC1CCC(C(=O)O)CC1)C(C)C (stereo partly shown)
27 | > 200 µM | COC(C(=O)N[C@H](CC(C)C)[C@H](O)CC(=O)N[C@@H](C(=O)NCc1ccc(C(=O)O)cc1)C(C)C)(c1ccccc1)C(F)(F)F (stereo partly shown)
28 | < 10 µM | CCCN(CCC)C(=O)c1ccc(C(=O)N[C@H](Cc2cc(F)cc(F)c2)[C@H](O)CC(=O)N[C@@H](C(=O)N[C@H]2C[C@@H](C(=O)O)C[C@@H](C(=O)O)C2)C(C)C)s1
29 | < 10 µM | CC(C)[C@@H](NC(=O)C[C@@H](O)[C@@H](Cc1cccs1)NC(=O)C(O)c1cccc2ccccc12)C(=O)N[C@H]1C[C@@H](C(=O)O)C[C@@H](C(=O)O)C1 (stereo partly shown)
30 | < 10 µM | CC(C)[C@@H](NC(=O)C[C@@H](O)[C@@H](Cc1cc(F)cc(F)c1)NC(=O)c1ccc2ccccc2c1)C(=O)N[C@H]1C[C@@H](C(=O)O)C[C@@H](C(=O)O)C1
31 | < 10 µM | CC(C)C(=O)c1cccc(C(=O)N[C@H](Cc2cc(F)cc(F)c2)[C@H](O)CC(=O)N[C@@H](C(=O)N[C@H]2C[C@@H](C(=O)O)C[C@@H](C(=O)O)C2)C(C)C)c1
32 | > 200 µM | CC(C)C[C@H](NC(=O)C(O)c1cccc2ccccc12)[C@@H](O)CC(=O)N[C@H](C(=O)NCCCC(=O)O)C(C)C (stereo partly shown)
33 | < 10 µM | CC(C)[C@H](NC(=O)C[C@H](O)[C@H](Cc1cc(F)cc(F)c1)NC(=O)c1cccc(C(N)=O)c1)C(=O)NC1CC(C(=O)O)CC(C(=O)O)C1 (stereo partly shown)
34 | 10 to 99 µM | CC(C)C[C@@H](NC(=O)C(O)c1ccccc1Br)[C@H](O)CC(=O)N[C@@H](C(=O)NCc1ccc(C(=O)O)cc1)C(C)C (stereo partly shown)
35 | 10 to 99 µM | CC(C)[C@@H](NC(=O)C[C@@H](O)[C@@H](Cc1cscn1)NC(=O)C(O)c1cccc2ccccc12)C(=O)NCc1ccc(C(=O)O)cc1 (stereo partly shown)
36 | < 10 µM | CC(C)[C@@H](NC(=O)C[C@@H](O)[C@@H](Cc1cccc(C(F)(F)F)c1)NC(=O)C(O)c1cccc2ccccc12)C(=O)N[C@H]1C[C@@H](C(=O)O)C[C@@H](C(=O)O)C1 (stereo partly shown)
37 | < 10 µM | CC(C)C[C@H](NC(=O)C(O)c1cccc2ccccc12)[C@@H](O)CC(=O)N[C@H](C(=O)NC1CC(C(=O)O)CC(C(=O)O)C1)C(C)C (stereo partly shown)
